# AlphaSeq binding of Ab-14 heavy chain variants to a spike HR2 peptide

The measurements come from Engelhart et al. 2022 (doi:10.1038/s41597-022-01779-4) through the FLAb antibody collection.

Target peptide (SARS-CoV-2 spike, HR2 region): PDVDLGDISGINAS

Ab-14 is the parent antibody, in scFv form: VH, then three GGGGS repeats, then VL. The light chain is unchanged in all variants.
VH: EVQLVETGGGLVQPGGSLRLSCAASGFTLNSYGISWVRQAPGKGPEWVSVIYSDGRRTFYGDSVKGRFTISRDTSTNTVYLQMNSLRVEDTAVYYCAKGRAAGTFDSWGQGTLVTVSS
VL: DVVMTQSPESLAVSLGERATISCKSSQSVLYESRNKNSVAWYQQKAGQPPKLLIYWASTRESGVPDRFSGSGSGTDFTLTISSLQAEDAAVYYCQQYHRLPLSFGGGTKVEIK

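The starting antibody came from a phage panning campaign against this peptide. In library AAYL49, one, two or three CDR residues were substituted; doubles and triples were drawn at random. Affinity was read by AlphaSeq, a pooled yeast mating assay with surface-displayed partners. Pairs that bind mate more often; barcode pairs of the diploids are counted by sequencing. A regression on co-assayed BCL2-family reference pairs converts the normalised counts of each replicate to an apparent Kd. The assay was run in three technical replicates.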

Substitutions are numbered in sequence along the VH above, starting at 1 (not Kabat).
Numbers give log10(Kd / nM), so 0 is 1 nM and 3 is 1 µM. Smaller is tighter.
The mean shown is taken over the replicates in which the pair was detected.
"no signal" marks a missing value. The strain was present, yet no cells mated with the target were sequenced in any replicate, which points to weak or no binding.
As a blank, each scFv also met three strains without target: over library AAYL49, 15% of these pairings were detected, typically at 4.06 and seldom below 2.83. Also given: how often the same scFv was detected with the empty control strains.
In this assay the parent's reference entry averaged 0.65; its copy inside this library read 4.11 (one replicate of three).

| changes | mean log10 Kd (nM) | detected | signal with controls |
|---|---|---|---|
| T28I/I34G/D106I | 4.74 | 2 of 3 | 1 of 9 |
| G33I/G55F/T58K | 5.12 | 3 of 3 | 4 of 9 |
| L29S/Y52L/V64Q | no signal | 0 of 3 | 0 of 9 |
| G26I/I51K/A101V | 4.45 | 2 of 3 | 4 of 9 |
| N30I/S31I/D54L | 3.09 | 1 of 3 | 2 of 9 |
| L29W/R57E/D62P | 4.19 | 1 of 3 | 2 of 9 |
| G26R/S53D/F105C | no signal | 0 of 3 | 4 of 9 |
| F59N/S63D/A102W | 1.64 | 3 of 3 | 2 of 9 |
| F27K/I34R | 4.34 | 1 of 3 | 1 of 9 |
| T28M/Y32I/R57Y | no signal | 0 of 3 | 6 of 9 |
| F27E/G33V/T104A | no signal | 0 of 3 | 1 of 9 |
| I34W/S53L/K65C | no signal | 0 of 3 | 1 of 9 |
| T28D/G33E/S53H | no signal | 0 of 3 | 0 of 9 |
| D62V/S63P/T104V | no signal | 0 of 3 | 0 of 9 |
| I34P/Y52W/D62P | no signal | 0 of 3 | 0 of 9 |
| S31L/I34C/S63R | 5.47 | 1 of 3 | 2 of 9 |
| I34W/Y60F/D62H | no signal | 0 of 3 | 2 of 9 |
| G26E/S35W/D106K | no signal | 0 of 3 | 1 of 9 |
| N30V/Y60I/S63A | no signal | 0 of 3 | 0 of 9 |
| T28P/T58E/S63G | no signal | 0 of 3 | 0 of 9 |
| F27Y/V50K/S53D | no signal | 0 of 3 | 0 of 9 |
| Y32L/A101N/F105D | 3.62 | 1 of 3 | 2 of 9 |
| I34Y/V50L/G55M | no signal | 0 of 3 | 1 of 9 |
| G33Y/V50F/R100A | no signal | 0 of 3 | 5 of 9 |
| G26V/R57T/G103L | no signal | 0 of 3 | 1 of 9 |
| L29F/D62Y/A102R | no signal | 0 of 3 | 2 of 9 |
| T28R/S31K/A102Y | no signal | 0 of 3 | 1 of 9 |
| S35L/G99S | 3.95 | 1 of 3 | 2 of 9 |
| G61M/V64H/G99P | 4.08 | 3 of 3 | 2 of 9 |
| N30W/V50M/G61R | 4.37 | 1 of 3 | 5 of 9 |
| N30E/S31M/D62M | 3.77 | 3 of 3 | 1 of 9 |
| V64Q/G103P/T104W | 4.02 | 2 of 3 | 1 of 9 |
| G26M/G33W/R57K | 3.97 | 1 of 3 | 8 of 9 |
| V50T/G55E/S63M | no signal | 0 of 3 | 2 of 9 |
| I34Y/S53D/V64L | no signal | 0 of 3 | 1 of 9 |
| S53L/R57Q/F59E | 4.70 | 3 of 3 | 5 of 9 |
| L29M/A102L | 2.60 | 3 of 3 | 1 of 9 |
| T28L/V50N/T104Y | no signal | 0 of 3 | 0 of 9 |
| N30D/F59L/D62N | 2.00 | 3 of 3 | 4 of 9 |
| T28G/S31D/F59H | 0.44 | 3 of 3 | 6 of 9 |
| N30W/D62S/S63K | 1.52 | 3 of 3 | 0 of 9 |
| G26L/G55D/V64P | no signal | 0 of 3 | 0 of 9 |
| R100H/A101T/A102Q | 5.98 | 1 of 3 | 4 of 9 |
| Y52C/S53C | 4.19 | 2 of 3 | 0 of 9 |
| T58N/T104R | 2.46 | 3 of 3 | 0 of 9 |
| R56Q/F59M/G103C | 2.15 | 3 of 3 | 3 of 9 |
| R57S/G61H/F105T | no signal | 0 of 3 | 1 of 9 |
| G33C/F59H/K65M | no signal | 0 of 3 | 0 of 9 |
| V50Y/T58S/D62Y | no signal | 0 of 3 | 0 of 9 |
| Y32L/A102R | 3.72 | 1 of 3 | 1 of 9 |
| S53W/D106K | no signal | 0 of 3 | 0 of 9 |
| F59Q/Y60M/S63D | 4.33 | 3 of 3 | 4 of 9 |
| N30D/I34V/S63K | 0.29 | 3 of 3 | 4 of 9 |

A selection of 6 entries from above:

| changes | mean log10 Kd (nM) | detected | signal with controls |
|---|---|---|---|
| S35L/G99S | 3.95 | 1 of 3 | 2 of 9 |
| F27K/I34R | 4.34 | 1 of 3 | 1 of 9 |
| S31L/I34C/S63R | 5.47 | 1 of 3 | 2 of 9 |
| T58N/T104R | 2.46 | 3 of 3 | 0 of 9 |
| I34W/Y60F/D62H | no signal | 0 of 3 | 2 of 9 |
| G33C/F59H/K65M | no signal | 0 of 3 | 0 of 9 |